## Binding of CDR-mutated scFvs to a peptide of the spike HR2 region

Reference: Li et al. 2023, doi:10.1038/s41467-023-39022-2. File: FLAb, binding data.

Binding partner: SARS-CoV-2 spike HR2 peptide, sequence PDVDLGDISGINAS.

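The parent was found by panning a naive human phage display library on the peptide. The variants were designed computationally from a first round of random CDR variants and then made and measured. Several design methods are mixed in this list. AlphaSeq pools MATa yeast showing the antibodies with MATalpha yeast showing the peptide. Binding brings cells together so that they mate, and sequencing counts the barcode pairs among the diploids. Scores were corrected for input abundance and mapped to Kd with protein pairs of known affinity run in the same pool. There are six technical replicates.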

Ab-14 is the parent antibody, in scFv form: VH, then a (GGGGS)3 linker, then VL. The heavy chain is unchanged in all variants.
VH: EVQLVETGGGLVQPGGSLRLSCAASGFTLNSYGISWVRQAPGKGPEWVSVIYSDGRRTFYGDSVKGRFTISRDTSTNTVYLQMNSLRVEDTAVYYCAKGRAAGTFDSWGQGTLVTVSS
VL: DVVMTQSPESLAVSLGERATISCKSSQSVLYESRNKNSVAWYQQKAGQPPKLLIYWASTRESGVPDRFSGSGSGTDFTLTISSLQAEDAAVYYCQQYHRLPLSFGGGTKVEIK

The parent's light chain CDRs are KSSQSVLYESRNKNSVA, WASTRES, QQYHRLPLS; each variant's own CDRs replace them letter for letter.
Numbers give log10(Kd / nM), so 0 is 1 nM and 3 is 1 µM. Smaller is tighter.
Replicates are averaged; those with no signal do not enter the mean.
A pair that was not seen in that replicate is written "n.d."; this usually means weak binding, but a binder can also be missed.

replicates, log10 nM | log10 Kd (nM), mean | CDR-L1 | CDR-L2 | CDR-L3
n.d. 2.16 1.08 n.d. n.d. n.d. | 1.62 | NVQLQVRSDNNNKYNIA | DEMLREY | QQYNRLPLS
0.11 0.06 -0.07 -0.08 -0.03 -0.01 | 0.00 | IVSQSMLIESRNKNSVA | NASTREH | QQYHRLPLS
-0.17 -0.54 -0.48 -0.63 -0.24 -0.31 | -0.39 | KLSQSGLYESRNKNSVA | NASTREQ | QQYHRLPLS
0.72 1.04 0.57 0.77 0.91 1.17 | 0.86 | KFSQSVLYESRTKNSVA | NASTRES | QWYERLPLS
0.33 0.17 0.16 0.02 0.13 0.43 | 0.21 | KLSASQLYESRASNAVA | QASTRMM | QQYHRLPLS
0.48 0.45 0.02 0.17 0.14 0.30 | 0.26 | KLSQHVEYESRNKNSVA | NASTRLS | QQYHRLPLS
0.24 0.23 0.44 0.08 0.22 0.25 | 0.24 | KISQSMLYEPRNWNSVA | NASTRWS | QQYHRLPLS
1.43 1.56 1.12 1.25 2.21 1.43 | 1.50 | HMSMLTLMGQRHRNSVA | QMTTREN | QQYDRLPLS
1.87 1.55 1.26 1.88 1.86 1.85 | 1.71 | MMSQVTGMELRQQNNVA | QTTTRES | QQYDRLPLI
n.d. n.d. n.d. n.d. n.d. n.d. | n.d. | KSSQSVLYESRNKNSVA | WASTRES | QQCHRLPLS
0.75 0.35 0.50 0.50 0.33 0.50 | 0.49 | HSSPSTLYESRNKNSVA | NASTREE | QQYHRLPLS
1.16 0.49 0.45 0.74 2.03 0.75 | 0.94 | MISQLTNMGQFAINSVA | QASIRNE | QQYDRLPLM
n.d. n.d. n.d. n.d. n.d. n.d. | n.d. | KSSQSVLEESRNKNSVA | WASTRES | QQYSRLILS
-0.31 -0.24 -0.39 -0.25 0.02 -0.35 | -0.25 | KSSQSVLYESRNKNSVA | GASTRES | QQKHRLPLS
-0.23 -0.03 0.14 0.12 0.14 0.36 | 0.08 | KLSQSVLYESRNKNSVA | WASTRES | QQYGRLPLS
n.d. 0.76 1.49 n.d. n.d. 1.29 | 1.18 | MLYGLSVSMSKNTNNVA | EMTTRED | QQYDRLPLI
1.33 1.12 1.42 1.46 1.01 1.70 | 1.34 | TISQSFLMENQFKNSVA | QASTREH | QCYDRLPLS
0.56 0.73 0.70 0.56 0.75 0.81 | 0.68 | KISQMVRVGSTKQNSIA | EEATRAD | QQYHRLPLS
0.20 0.05 -0.03 0.01 -0.13 -0.03 | 0.01 | KLSMSDLYEMRNKNSVA | EASTREV | QQYHRLPLS
0.44 0.30 0.29 0.20 0.33 0.54 | 0.35 | KSSISLLYESRNKNSVA | EASTRES | QQYHRLPLS
n.d. 1.94 2.19 1.16 1.00 n.d. | 1.57 | HMSMLTMMGMRQRNSVA | QMTTREN | QQYDRLPLA
-0.40 -0.42 -0.72 -0.74 -0.64 0.31 | -0.44 | HISMMVGTKGYAKNSVA | NEQTRYD | QQYHRLPLS
-0.09 0.64 0.08 0.52 0.43 0.23 | 0.30 | KSSQSVLDESRNKDSVA | NASTRES | QQYHRLPLS
0.08 0.23 0.43 0.18 0.08 0.37 | 0.23 | KSSQSVLYQSANKNSVA | AASTRES | QQYHRLPLS
0.51 -0.02 0.53 0.39 0.27 0.59 | 0.38 | KSSQSVLYEERNKNSVA | DASTRED | QQYHRLPLS
-0.12 0.03 0.21 0.24 -0.08 0.16 | 0.07 | KFEQSHLYESRNKNSVA | NASQRES | QQYHRLPLS
1.47 n.d. 0.95 n.d. 2.87 2.02 | 1.83 | TISQSMLMTGLNRNSVA | QAEERIE | QQYHRLPLS
0.62 0.42 0.49 0.14 0.38 0.52 | 0.43 | KVNGLMNIEQMNSKSVA | QSQTREN | QQYHRLPLS
-0.02 -0.01 -0.16 -0.20 -0.09 -0.12 | -0.10 | KSSQSVKVESRNKNSVA | DASTRES | QQYHRLPLS
0.73 0.50 0.54 0.29 0.98 0.63 | 0.61 | KSSQSVLYTSRNKNSVA | NADTRES | QQYHRLPLS
1.62 0.69 1.63 1.34 0.42 0.86 | 1.09 | KISYLQNQTFEESNNVA | EMVTREK | QQYHRLPLS
n.d. 0.76 0.68 1.25 1.04 1.32 | 1.01 | KISSMVRVGSTHSNSIA | EEATRAK | QQYHRLPLA
-0.14 0.11 -0.13 -0.26 -0.16 -0.02 | -0.10 | KLSQSELYESRNKNSVA | NASTRES | QQYHRLPLQ
1.53 2.54 1.61 2.37 1.25 1.68 | 1.83 | KVSEFMRGMMRQKNSIA | DNNTRGS | QQYDRLPLS
n.d. 2.17 1.49 0.95 0.89 1.54 | 1.41 | MLSQMWALGMKVSNSVA | QASTRFE | QQYERLPFI
-0.28 -0.30 -0.46 -0.60 -0.58 -0.14 | -0.39 | KLENSNLYESRNGNSVA | NASTRES | QQYHRLPLS
n.d. 2.97 n.d. 1.34 n.d. 1.80 | 2.03 | TLYGLSNSMSINKDSVA | EMTTRED | QQYDRLPLA
1.27 0.99 0.92 0.87 1.29 1.03 | 1.06 | NLFGVDFESKQMGNAIA | DMSHVMA | QQYFMLPLH
0.75 1.18 0.88 0.74 1.27 0.80 | 0.94 | KFGQSVLTGSYVRNSVA | QSSTREN | QQYDRLPLS
1.62 1.59 1.26 1.12 1.71 1.31 | 1.44 | MMSQVTGMGQRHRNNVA | QTSTRED | QQYDRLPLV
-0.25 -0.39 -0.36 -0.54 -0.51 -0.37 | -0.40 | KCDQSWDYESRNKNNVA | NASQRED | QQYHRLPLS
0.03 0.00 -0.19 -0.25 -0.03 0.15 | -0.05 | KFSQEVGMESRNMNSVA | NASTREE | QQYHRLPLS
-0.30 -0.40 -0.42 -0.50 -0.53 -0.21 | -0.39 | KISQSVLYEDRNKNSVA | NASTRFS | QQYHRLPLS

Top 4 of the variants detected in all replicates, tightest first:

CDR-L1 | CDR-L2 | CDR-L3 | replicates, log10 nM | log10 Kd (nM), mean
HISMMVGTKGYAKNSVA | NEQTRYD | QQYHRLPLS | -0.40 -0.42 -0.72 -0.74 -0.64 0.31 | -0.44
KCDQSWDYESRNKNNVA | NASQRED | QQYHRLPLS | -0.25 -0.39 -0.36 -0.54 -0.51 -0.37 | -0.40
KLSQSGLYESRNKNSVA | NASTREQ | QQYHRLPLS | -0.17 -0.54 -0.48 -0.63 -0.24 -0.31 | -0.39
KLENSNLYESRNGNSVA | NASTRES | QQYHRLPLS | -0.28 -0.30 -0.46 -0.60 -0.58 -0.14 | -0.39

Background: pairings of all light chain designs with three empty control strains gave a value in 4% of cases (median 2.64, 5th percentile 1.59). Values in that range, when seen in few replicates, are hard to tell from nonspecific mating.
Values of this round are not directly comparable with the first-round values of the same sequences.
The authors averaged sequences with at least three values out of six and counted those with two or fewer as poor binders.